# Reference: PMC4848090, “Mechanistic insight into a peptide hormone signaling complex mediating floral organ abscission” (eLife, 2016)
# Protein sequences, listed by entry. Tags and fused reporters are not part of them. Residues count along the entry.
# UniProt P47735, 20-620, stated change not applied: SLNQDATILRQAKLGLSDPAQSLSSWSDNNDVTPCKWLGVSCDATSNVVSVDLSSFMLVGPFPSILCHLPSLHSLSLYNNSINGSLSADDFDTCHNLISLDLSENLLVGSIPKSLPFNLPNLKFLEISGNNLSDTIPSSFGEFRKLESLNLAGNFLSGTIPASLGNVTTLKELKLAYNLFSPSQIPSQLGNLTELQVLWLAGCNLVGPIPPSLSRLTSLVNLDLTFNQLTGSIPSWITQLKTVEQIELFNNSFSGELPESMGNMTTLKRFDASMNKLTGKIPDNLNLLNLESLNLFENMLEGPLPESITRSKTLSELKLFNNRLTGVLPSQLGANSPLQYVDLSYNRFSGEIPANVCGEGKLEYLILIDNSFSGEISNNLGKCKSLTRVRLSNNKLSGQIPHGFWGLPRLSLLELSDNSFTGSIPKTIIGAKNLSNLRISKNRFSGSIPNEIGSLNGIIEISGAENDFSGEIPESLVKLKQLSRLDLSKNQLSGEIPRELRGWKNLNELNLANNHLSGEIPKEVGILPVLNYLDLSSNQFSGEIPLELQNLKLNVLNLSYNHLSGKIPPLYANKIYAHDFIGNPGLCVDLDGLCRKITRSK
# UniProt Q94AG2, 24-213 N115D/N163Q: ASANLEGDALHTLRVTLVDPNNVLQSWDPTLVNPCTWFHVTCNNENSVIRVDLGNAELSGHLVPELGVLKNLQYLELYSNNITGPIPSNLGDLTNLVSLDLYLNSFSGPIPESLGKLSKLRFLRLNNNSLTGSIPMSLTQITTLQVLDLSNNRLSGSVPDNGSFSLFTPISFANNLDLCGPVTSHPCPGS
# Assays:
# [1] = system: HAESA and SERK1 ectodomains; assay: Analytical size-exclusion chromatography of HAESA – SERK1 ectodomain complex formation with peptide; format: binding, Arabidopsis thaliana; conditions: Superdex 200 HR 10/30, 20 mM citric acid pH 5, 100 mM NaCl; peptide 25 μM; HAESA and SERK1 1:1 molar ratio; UV 280 nm
# Experimental: Gel filtration experiments were performed using a Superdex 200 HR 10/30 column (GE Healthcare) pre-equilibrated in 20 mM citric acid (pH 5) and 100 mM NaCl. 100 μL of the isolated HAESA ectodomain (5.5 mg/mL), of the purified SERK1 LRR domain (3 mg/mL) or of mixtures of HAESA and SERK1 (either in the presence or absence of synthetic wild-type IDA, wild-type IDL1 or mutant IDA peptides at a concentration of 25 μM; 10 mg/mL; samples contained HAESA and SERK1 in 1:1 molar ratio) were loaded sequentially onto the column and elution at 0.5 mL/min was monitored by ultraviolet absorbance at 280 nm.
# [2] = target: T1, HAESA - SERK1 ectodomain mixture (Arabidopsis thaliana, UniProt P47735+Q94AG2, N115D/N163Q); assay: Isothermal titration calorimetry of IDA peptides titrated into a 1:1 HAESA – SERK1 ectodomain mixture; format: binding; conditions: ITC
# T1 construct: Synthetic genes coding for the Arabidopsis thaliana HAESA (residues 20–620) and SERK1 ectodomains; SERK1 ectodomains (residues 24–213, carrying Asn115→Asp and Asn163→Gln mutations); azurocidin signal peptide (N); made in house; host or cells: Trichoplusia ni Tnao38 insect cells (baculovirus, secreted); proteins expressed and purified separately, then mixed 1:1
# From the text: Synthetic genes coding for the Arabidopsis thaliana HAESA (residues 20–620) and SERK1 ectodomains (residues 24–213, carrying Asn115→Asp and Asn163→Gln mutations), codon optimized for expression in Trichoplusia ni (Geneart, Germany), were cloned into a modified pBAC-6 transfer vector (Novagen, Billerica, MA), providing an azurocidin signal peptide and a C-terminal TEV (tobacco etch virus protease) cleavable Strep-9xHis tandem affinity tag. Recombinant baculoviruses were generated by co-transfecting transfer vectors with linearised baculovirus DNA (ProFold-ER1, AB vector, San Diego, CA) followed by viral amplification in Spodoptera frugiperda Sf9 cells. […] The purified HAESA ectodomain was incubated with a synthetic IDA peptide (YVPIPPSA-Hyp-SKRHN, the N-terminal Tyr residue was added to allow for peptide quantification by UV absorbance) and the SERK1 ectodomain in 1:1:1.5 molar ratio. […]
# ITC experiments were performed using a Nano ITC (TA Instruments, New Castle, DE) with a 1.0 mL standard cell and a 250 μL titration syringe. […] Molar protein concentrations for SERK1 and HAESA were calculated using their molar extinction coefficient and a molecular weight of 27,551 and 74,896 Da, respectively (determined by MALDI-TOF mass spectrometry). […] Data were analyzed using the NanoAnalyze program (version 2.3.6) as provided by the manufacturer.
compound,measurement,setting,value
CC[C@H](C)[C@H](NC(=O)[C@@H]1CCCN1C(=O)[C@@H](NC(=O)[C@@H](N)Cc1ccc(O)cc1)C(C)C)C(=O)N1CCC[C@H]1C(=O)N1CCC[C@H]1C(=O)N[C@@H](CO)C(=O)N[C@@H](C)C(=O)N1C[C@H](O)C[C@H]1C(=O)N[C@@H](CO)C(=O)N[C@@H](C)C(=O)N[C@@H](C)C(=O)N[C@@H](Cc1c[nH]cn1)C(=O)N[C@@H](CC(N)=O)C(=O)O [IDA K66A/R67A],HAESA – SERK1 complex formation in size exclusion chromatography,[1],do not form biochemically stable HAESA-IDA-SERK1 complexes
same,"N (stoichiometry), protein in cell: HAESA - SERK1","[2]; 25°C, pH 5.0, 150 μM peptide into 10 μM 1:1 HAESA – SERK1 mixture, ± fitting errors",0.96 ±0.05
same,fold reduced binding affinity when titrated in a HAESA/SERK1 protein solution,[2]; mutant peptide compared with wild-type IDA,10 fold
